Results as given in ChEMBL document CHEMBL5385907, “Proline-Hinged α-Helical Peptides Sensitize Gram-Positive Antibiotics, Expanding Their Physicochemical Properties to Be Used as Gram-Negative Antibiotics” (J Med Chem, 2024).

Legend:
Escherichia coli [1] = assay: Antibacterial activity against Escherichia coli ATCC 25922 assessed as inhibition of bacterial growth incubated for 18 hrs by two fold serial dilution assay; format: functional
Acinetobacter baumannii [2] = assay: Antibacterial activity against Acinetobacter baumannii ATCC 17978 assessed as inhibition of bacterial growth incubated for 18 hrs by two fold serial dilution assay; format: functional
Klebsiella pneumoniae [3] = assay: Antibacterial activity against Klebsiella pneumoniae ATCC 700603 assessed as inhibition of bacterial growth incubated for 18 hrs by two fold serial dilution assay; format: functional
[4] = Hemolytic activity in human blood assessed as hemolysis incubated for 6 hrs by microplate reader analysis; format: toxicity, tissue-based
[5] = Hydrophobicity of the compound assessed as retention time by reversed-phase HPLC analysis; format: physicochemical
Escherichia coli [6] = assay: Potentiation of erythromycin induced antibacterial activity against Escherichia coli ATCC 25922 assessed as decrease in bacterial growth at 0.4 uM incubated for 18 hrs in presence of erythromycin by two fold serial dilution assay; format: functional, organism-based
Escherichia coli [7] = assay: Potentiation of fusidic acid induced antibacterial activity against Escherichia coli ATCC 25922 assessed as decrease in bacterial growth at 0.4 uM incubated for 18 hrs in presence of fusidic acid by two fold serial dilution assay; format: functional, organism-based
Escherichia coli [8] = assay: Potentiation of novobiocin induced antibacterial activity against Escherichia coli ATCC 25922 assessed as decrease in bacterial growth at 0.4 uM incubated for 18 hrs in presence of novobiocin by two fold serial dilution assay; format: functional, organism-based
Acinetobacter baumannii [9] = assay: Potentiation of erythromycin induced antibacterial activity against Acinetobacter baumannii ATCC 17978 assessed as decrease in bacterial growth at 0.4 uM incubated for 18 hrs in presence of erythromycin by two fold serial dilution assay; format: functional, organism-based
Acinetobacter baumannii [10] = assay: Potentiation of fusidic acid induced antibacterial activity against Acinetobacter baumannii ATCC 17978 assessed as decrease in bacterial growth at 0.4 uM incubated for 18 hrs in presence of fusidic acid by two fold serial dilution assay; format: functional, organism-based
Acinetobacter baumannii [11] = assay: Potentiation of novobiocin induced antibacterial activity against Acinetobacter baumannii ATCC 17978 assessed as decrease in bacterial growth at 0.4 uM incubated for 18 hrs in presence of novobiocin by two fold serial dilution assay; format: functional, organism-based
Klebsiella pneumoniae [12] = assay: Potentiation of erythromycin induced antibacterial activity against Klebsiella pneumoniae ATCC 700603 assessed as decrease in bacterial growth at 0.4 uM incubated for 18 hrs in presence of erythromycin by two fold serial dilution assay; format: functional, organism-based
Klebsiella pneumoniae [13] = assay: Potentiation of fusidic acid induced antibacterial activity against Klebsiella pneumoniae ATCC 700603 assessed as decrease in bacterial growth at 0.4 uM incubated for 18 hrs in presence of fusidic acid by two fold serial dilution assay; format: functional, organism-based
Klebsiella pneumoniae [14] = assay: Potentiation of novobiocin induced antibacterial activity against Klebsiella pneumoniae ATCC 700603 assessed as decrease in bacterial growth at 0.4 uM incubated for 18 hrs in presence of novobiocin by two fold serial dilution assay; format: functional, organism-based

## CC(=O)N[C@@H](CCCCN)C(=O)N[C@@H](CCCCN)C(=O)N[C@@H](CC(C)C)C(=O)N[C@@H](CC(C)C)C(=O)N[C@@H](CCCCN)C(=O)N[C@@H](C)C(=O)N[C@@H](CC(C)C)C(=O)N[C@@H](CCCCN)C(=O)N[C@@H](CCCCN)C(=O)N1CCC[C@H]1C(=O)N[C@@H](CC(C)C)C(=O)N[C@@H](CCCCN)C(=O)N[C@@H](CC(C)C)C(=O)N[C@@H](CC(C)C)C(=O)N[C@@H](CCCCN)C(N)=O
Escherichia coli [1]
  MIC: > 80 µM
Acinetobacter baumannii [2]
  MIC: 40 µM (≈ 72.1 µg/mL)
Klebsiella pneumoniae [3]
  MIC: > 80 µM
[4]
  MHC10: > 160 µM
[5]
  Retention_time: 16.7 min
Escherichia coli [6]
  Activity: Active
Escherichia coli [7]
  Activity: Active
Escherichia coli [8]
  Activity: Active
Acinetobacter baumannii [9]
  Activity: Active
Acinetobacter baumannii [10]
  Activity: Active
Acinetobacter baumannii [11]
  Activity: Active
Klebsiella pneumoniae [12]
  Activity: Active
Klebsiella pneumoniae [13]
  Activity: Active
Klebsiella pneumoniae [14]
  Activity: Active

≈ marks a conversion by molar mass, not a printed value. Calls of active or inactive are those of the source. The calls are words filed in the database; no cut-off is given here.
